Reference: patent EP4840874A1, “NOVEL PEPTIDE HAVING ACTIVITIES OF INHIBITING MUSCLE LOSS AND PROMOTING MUSCLE GROWTH, AND USES THEREOF” (dated 2026)

Legend:
[1] = system: C2C12 myoblasts; experiment: Myoblast proliferation (EZ-cytox cell viability test)
Method: To analyze the effect of the peptide prepared in Preparation Example 1 on myoblast proliferation, cell viability/cytotoxicity tests were performed.
C2C12 cells (mouse myoblast line) were cultured in DMEM medium containing 1% P/S and 10% FBS. When the cell confluency reached approximately 70 to 80%, cells were seeded into 96-well culture plates at a density of 5 x 10^3 cells/well by 200 µl. After 1 day, the medium was replaced with serum-free DMEM medium (1% P/S), and after 4 hours, it was replaced with DMEM containing 0.2% FBS while adding the peptide of SEQ ID NO: 1 at concentrations of 5 µM, 50 µM, or 100 µM. After 48 and 72 hours, the reaction was carried out using EZ-cytox (DoGenBio Co., Ltd, Seoul, Korea) until the absorbance of Non reached 1.0, and the absorbance at 450 nm was measured using a Spectrophotometer (SPECTRAMAX M2e).

[2] = system: C2C12 myoblasts; experiment: Myogenesis-related protein expression (Western blot); conditions: 1 hour
Method: To determine the effect of the peptide prepared in Preparation Example 1 on myogenesis, the expression levels of myogenesis-related protein markers in myoblasts were evaluated through Western blot analysis.
C2C12 cells (mouse myoblast line) were cultured in DMEM medium containing 1% P/S and 10% FBS. When cell confluency reached approximately 70 to 80%, cells were seeded into 6-well culture plates at a density of 5 x 10^5 cells/well by 2 ml. After 1 day, the medium was replaced with serum-free DMEM medium (1% P/S), and after 4 hours, the peptide of SEQ ID NO: 1 was added at a concentration of 5 µM or 50 µM. After 1 hour, lysis buffer was added to lyse the cells, which was then centrifuged at 4°C and 12,000 rpm for 30 minutes to obtain the protein, which was quantified using a BCA kit. SDS-PAGE was performed on the protein, and it was electrotransferred onto a membrane. After blocking the protein-electrophoresed membrane with 5% skim milk, anti-pPI3K primary antibody (Cell signaling Technology, USA) and anti-p70S6K primary antibody (Cell signaling Technology, USA) were reacted with anti-β-actin primary antibody (Santa Cruz, USA) as a loading control overnight at 4°C. The membrane was washed with PBS-T, and Peroxidase-conjugated AffiniPure Goat Anti-Rabbit IgG (H+L) secondary antibody (Jackson immunoResearch, USA) and Peroxidase-conjugated AffiniPure Goat Anti-Mouse IgG (H+L) secondary antibody (Jackson immunoResearch, USA) were reacted at room temperature for 1 hour. After washing the membrane again with PBS-T, visualization was performed using Gel Doc (Bio-Rad, Hercules, CA, USA) with Western detection reagent (Elpis Biotech, Daejeon, Korea).

[3] = system: C2C12 myoblasts; experiment: Early/mid-stage differentiation gene expression (RT-PCR); conditions: 3 days differentiation
Method: To determine the effect of the peptide prepared in Preparation Example 1 on the differentiation of myoblasts into muscle cells/muscle fibers, the expression levels of gene markers related to early/mid-stage differentiation in myoblasts were evaluated through RT-PCR analysis.
C2C12 cells (mouse myoblast line) were cultured in DMEM medium containing 1% P/S and 2% BCS. When cell confluency reached approximately 70 to 80%, cells were seeded into 6-well culture plates at a density of 5 x 10^5 cells/well by 2 ml. Subsequently, when cell confluency reached 100%, the medium was replaced with differentiation medium (1% P/S, 2% horse serum), and the peptide of SEQ ID NO: 1 was added at a concentration of 5 µM or 50 µM. Afterwards, the differentiation medium and the peptide of SEQ ID NO: 1 were replaced every two days, and three days after the first replacement, the cells were harvested and RNA was extracted using Trizol (Thermo Fisher Scientific, USA). DNA complementary to the extracted RNA was obtained using TOPScript™ RT DryMIX (enzynomics, Korea), and then polymerase chain reaction (PCR) was performed on early/mid-stage differentiation marker genes using TOPsimple™ DryMIX-nTaq (enzynomics, Korea). The mRNA expression levels of the markers were then compared under each sample treatment condition by running the samples on a 1.5% agarose gel. The primer sequences of the genes used in the experiment and the primer sequence of the GAPDH gene as a control are shown in Table 2.

[4] = system: C2C12 myoblasts; experiment: Muscle protein synthesis-related protein expression (Western blot); conditions: 5 or 50 µM, 3 days differentiation
Method: To determine the effect of the peptide prepared in Preparation Example 1 on the expression of proteins related to muscle protein synthesis, the expression levels of signaling protein markers related to muscle protein synthesis in myoblasts were evaluated through Western blot analysis.
C2C12 cells (mouse myoblast line) were cultured in DMEM medium containing 1% P/S and 2% BCS. When cell confluency reached approximately 70 to 80%, cells were seeded into 6-well culture plates at a density of 5 x 10^5 cells/well with 2 ml aliquots. Subsequently, when cell confluency reached 100%, the medium was replaced with differentiation medium (1% P/S, 2% horse serum), and the peptide of SEQ ID NO: 1 was added at a concentration of 5 µM or 50 µM. Subsequently, the differentiation medium and the peptide of SEQ ID NO: 1 were replaced every two days. Three days after the first replacement, lysis buffer was added to lyse the cells, which was then centrifuged at 4°C and 12,000 rpm for 30 minutes to obtain the protein, which was quantified using a BCA kit. SDS-PAGE was performed on the protein, and the protein was electrotransferred onto a membrane. After blocking the protein-electrophoresed membrane with 5% skim milk, the anti-SIRT1 primary antibody (Cell signaling Technology, USA), anti-IGF-1 primary antibody (Cell signaling Technology, USA), anti-pmTOR primary antibody (Cell signaling Technology, USA), and anti-p70S6K primary antibody (Cell signaling Technology, USA) were reacted with the anti-β-actin primary antibody (Santa Cruz, USA) as a loading control overnight at 4°C. The membrane was washed with PBS-T, and the Peroxidase-conjugated AffiniPure Goat Anti-Rabbit IgG (H+L) secondary antibody (Jackson immunoResearch, USA) and the Peroxidase-conjugated AffiniPure Goat Anti-Mouse IgG (H+L) secondary antibody (Jackson immunoResearch, USA) were incubated for 1 hour at room temperature. After washing the membrane again with PBS-T, visualization was performed using a Gel Doc (Bio-Rad, Hercules, CA, USA) with a Western detection reagent (Elpis Biotech, Daejeon, Korea).

CC(C)[C@H](NC(=O)[C@@H](NC(=O)[C@@H](N)CC(=O)O)[C@@H](C)O)C(=O)N[C@@H](CCC(=O)O)C(=O)N[C@@H](CC(N)=O)C(=O)O
cell proliferation level in C2C12 myoblasts ([1]; 5, 50 or 100 µM, 48 and 72 hours): increased in a concentration-dependent manner
proliferation level of C2C12 myoblasts increased ([1]; 48 hours, peptide concentration 50 µM): approximately 17%
proliferation level of C2C12 myoblasts increased ([1]; 72 hours, peptide concentration 100 µM): approximately 42%
expression of p70S6K ([2]; 5 or 50 µM): increased in a concentration-dependent manner
expression of pPI3K ([2]; 5 or 50 µM): increased in a concentration-dependent manner
p70S6K protein expression increase ([2]; peptide concentration 50 µM): approximately 135%
pPI3K protein expression increase ([2]; peptide concentration 50 µM): approximately 39%
mRNA expression level of Myf4 ([3]; 5 or 50 µM): significantly increased in a peptide concentration-dependent manner
mRNA expression level of Myf5 ([3]; 5 or 50 µM): significantly increased in a peptide concentration-dependent manner
mRNA expression level of Myf6 ([3]; 5 or 50 µM): significantly increased in a peptide concentration-dependent manner
mRNA expression level of MyoG ([3]; 5 or 50 µM): significantly increased in a peptide concentration-dependent manner
mRNA expression level of Myf4 increase ([3]; peptide concentration 50 µM): more than 100 fold
mRNA expression level of Myf6 increase ([3]; peptide concentration 50 µM): more than 48 fold
protein expression level of IGF-1 [4]: significantly increased in a peptide concentration-dependent manner
protein expression level of SIRT1 [4]: significantly increased in a peptide concentration-dependent manner
protein expression level of p70S6K [4]: significantly increased in a peptide concentration-dependent manner
protein expression level of pmTOR [4]: significantly increased in a peptide concentration-dependent manner
